Measurements taken from the Kinase Knowledgebase extract (Sharma et al. 2016).

The chains behind the UniProt entries cited, without tags or fusion partners.
UniProt P42336, whole entry, looked up: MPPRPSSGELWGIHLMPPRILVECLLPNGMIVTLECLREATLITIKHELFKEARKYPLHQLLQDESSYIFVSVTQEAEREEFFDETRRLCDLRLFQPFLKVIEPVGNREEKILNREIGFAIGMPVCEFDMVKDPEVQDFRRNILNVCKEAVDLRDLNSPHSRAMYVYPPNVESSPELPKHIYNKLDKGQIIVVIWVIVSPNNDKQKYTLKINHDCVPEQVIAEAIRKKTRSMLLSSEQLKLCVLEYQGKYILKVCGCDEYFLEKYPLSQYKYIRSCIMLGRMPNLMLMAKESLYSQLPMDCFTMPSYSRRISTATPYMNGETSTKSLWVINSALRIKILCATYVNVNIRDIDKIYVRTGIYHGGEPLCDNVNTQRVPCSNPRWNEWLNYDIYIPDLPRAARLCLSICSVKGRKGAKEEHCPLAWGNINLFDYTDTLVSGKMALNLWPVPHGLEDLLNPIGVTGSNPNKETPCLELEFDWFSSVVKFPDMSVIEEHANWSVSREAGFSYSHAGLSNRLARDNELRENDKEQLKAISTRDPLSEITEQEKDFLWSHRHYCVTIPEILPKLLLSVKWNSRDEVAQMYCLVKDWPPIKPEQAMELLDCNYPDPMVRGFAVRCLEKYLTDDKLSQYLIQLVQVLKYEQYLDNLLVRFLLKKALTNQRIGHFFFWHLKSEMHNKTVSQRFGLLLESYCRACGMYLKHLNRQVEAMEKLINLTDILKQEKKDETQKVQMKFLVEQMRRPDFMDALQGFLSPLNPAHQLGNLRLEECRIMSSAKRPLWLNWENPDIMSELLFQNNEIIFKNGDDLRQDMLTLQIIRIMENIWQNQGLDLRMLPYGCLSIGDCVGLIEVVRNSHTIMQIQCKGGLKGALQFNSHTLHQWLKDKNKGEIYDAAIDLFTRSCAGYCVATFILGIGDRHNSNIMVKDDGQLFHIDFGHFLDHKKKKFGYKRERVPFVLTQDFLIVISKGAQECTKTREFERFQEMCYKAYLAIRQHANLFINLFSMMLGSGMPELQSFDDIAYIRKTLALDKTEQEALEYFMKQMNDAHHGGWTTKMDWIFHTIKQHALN

Key:
PIK3CA (human) = PIK3CA (human) (UniProt P42336); experiment: Inhibition of PIK3CA Kinase Activity
[1] = target: PIK3CA (human), P42336 [Antiproliferation of PI3K Mutated BT20 Cells]; experiment: Cell-Based Assay

Compound | IC50 (PIK3CA (human)) [nM] | IC50 [1] [nM]
Cc1nc(N)nc2c1cc(-c1cc[nH]n1)c(=O)n2[C@H]1CC[C@H](OCCO)CC1 | 14.6 | 137
Cc1nc(N)nc2c1cc(-c1cn[nH]c1)c(=O)n2[C@@H]1CC[C@@H](O)C1 |  | 262
Cc1nc(N)nc2c1cc(-c1cnc3ccccc3c1)c(=O)n2[C@H]1CC[C@@H](OCCO)CC1 | 52.9 | 96.2
Cc1nc(N)nc2c1cc(-c1cnn(C)c1)c(=O)n2[C@@H]1CC[C@@H](O)C1 |  | 1300
CNc1nc(C)c2cc(-c3ccc(OC)nc3)c(=O)n(CCN)c2n1 |  | 1270
Cc1nc(N)nc2c1cc(-c1cn[nH]c1)c(=O)n2CC1CCCO1 (stereo not drawn) |  | 249
CCOC(=O)c1cccc(-c2cc3c(C)nc(NC)nc3n(C3CCCC3)c2=O)c1 | 7080 | 10000
Cc1nc(N)nc2c1cc(Br)c(=O)n2[C@@H]1CC[C@H](O)C1 |  | 1040
Cc1nc(N)nc2c1cc(-c1cnc3[nH]ccc3c1)c(=O)n2CC(C)(C)O |  | 116
Cc1nc(N)nc2c1cc(-c1cn[nH]c1)c(=O)n2CC1CCOC1 (stereo not drawn) |  | 94.9
COc1ccc(-c2cc3c(C)nc(N)nc3n(C3CCOC3)c2=O)cn1 (stereo not drawn) | 7.5 | 143
COc1ccc(-c2cc3c(C)nc(N)nc3n(CC(C)(C)O)c2=O)cn1 |  | 340
CCNc1nc(C)c2cc(CCC(N)=O)c(=O)n(C3CCCC3)c2n1 |  | 8370
Cc1nc(N)nc2c1cc(-c1cnn(C)c1)c(=O)n2[C@@H]1CC[C@H](O)C1 |  | 934
COc1ccc(-c2cc3c(C)nc(N)nc3n(CC(C)C)c2=O)cn1 |  | 79.3
COc1ccc(-c2cc3c(C)nc(N)nc3n(CC3CCOC3)c2=O)cn1 (stereo not drawn) |  | 145
CNc1nc(C)c2cc(C(=O)Nc3ccccn3)c(=O)n(C3CCCC3)c2n1 |  | 265

Molecules with a lower IC50 [1], results first:

IC50 (PIK3CA (human)) [nM] | IC50 [1] [nM] | Compound
 | 47.2 | Cc1nc(N)nc2c1cc(-c1cn[nH]c1)c(=O)n2[C@@H]1CC[C@H](O)C1
 | 43.7 | COc1ncc(-c2cc3c(C)nc(N)nc3n([C@H]3CC[C@@H](O)CC3)c2=O)cn1
 | 34.8 | Cc1nc(N)nc2c1cc(-c1ccc3c(c1)OCCO3)c(=O)n2[C@H]1CC[C@H](O)CC1
17.6 | 29.5 | Cc1nc(N)nc2c1cc(-c1cnc3ccccc3c1)c(=O)n2[C@H]1CC[C@H](OCCO)CC1
8.2 | 26.5 | COc1ccc(-c2cc3c(C)nc(N)nc3n(C3CCC3)c2=O)cn1
 | 25.1 | COc1ncc(-c2cc3c(C)nc(N)nc3n([C@H]3CC[C@H](O)CC3)c2=O)cn1
12 | 17.6 | Cc1nc(N)nc2c1cc(-c1ccc(N(C)C)nc1)c(=O)n2[C@H]1CC[C@@H](O)CC1
5.03 | 17 | CCNc1nc(C)c2cc(-c3ccc(OC)nc3)c(=O)n(C3CCCC3)c2n1
 | 16.7 | Cc1nc(N)nc2c1cc(-c1cn[nH]c1)c(=O)n2C1CCC1
2.96 | 16.1 | COc1ccc(-c2cc3c(C)nc(N)nc3n(C3CCCC3)c2=O)cn1
29.4 | 9.64 | Cc1nc(N)nc2c1cc(-c1cn[nH]c1)c(=O)n2C(C)C
 | 8.02 | COc1ncc(-c2cc3c(C)nc(N)nc3n([C@H]3CC[C@@H](O)CC3)c2=O)cc1F
 | 7.92 | COc1ncc(-c2cc3c(C)nc(N)nc3n(C3CCCC3)c2=O)cc1F
 | 7.81 | CNc1nc(C)c2cc(-c3ccc(OC)nc3)c(=O)n([C@H]3CC[C@H](O)CC3)c2n1
5.9 | 5.97 | Cc1nc(N)nc2c1cc(-c1ccc(N(C)C)nc1)c(=O)n2[C@H]1CC[C@H](O)CC1
 | 4.69 | CO[C@H]1CC[C@H](n2c(=O)c(-c3cn[nH]c3)cc3c(C)nc(N)nc32)CC1
 | 3.39 | COc1ncc(-c2cc3c(C)nc(N)nc3n([C@H]3CC[C@H](OC)CC3)c2=O)cc1F
 | 3.1 | COc1ncc(-c2cc3c(C)nc(N)nc3n([C@H]3CC[C@H](O)CC3)c2=O)cc1F
1.03 | 0.793 | CNc1nc(C)c2cc(-c3ccc(OC)nc3)c(=O)n(C3CCCC3)c2n1
